# Molecular target: P2X purinoceptor 7 (Homo sapiens, UniProt Q99572)
# Chains of the proteins cited; added tags and fusions are not shown. Lines headed by an entry give the natural chain unless they say otherwise; changes in a name come on top.
# UniProt Q99572: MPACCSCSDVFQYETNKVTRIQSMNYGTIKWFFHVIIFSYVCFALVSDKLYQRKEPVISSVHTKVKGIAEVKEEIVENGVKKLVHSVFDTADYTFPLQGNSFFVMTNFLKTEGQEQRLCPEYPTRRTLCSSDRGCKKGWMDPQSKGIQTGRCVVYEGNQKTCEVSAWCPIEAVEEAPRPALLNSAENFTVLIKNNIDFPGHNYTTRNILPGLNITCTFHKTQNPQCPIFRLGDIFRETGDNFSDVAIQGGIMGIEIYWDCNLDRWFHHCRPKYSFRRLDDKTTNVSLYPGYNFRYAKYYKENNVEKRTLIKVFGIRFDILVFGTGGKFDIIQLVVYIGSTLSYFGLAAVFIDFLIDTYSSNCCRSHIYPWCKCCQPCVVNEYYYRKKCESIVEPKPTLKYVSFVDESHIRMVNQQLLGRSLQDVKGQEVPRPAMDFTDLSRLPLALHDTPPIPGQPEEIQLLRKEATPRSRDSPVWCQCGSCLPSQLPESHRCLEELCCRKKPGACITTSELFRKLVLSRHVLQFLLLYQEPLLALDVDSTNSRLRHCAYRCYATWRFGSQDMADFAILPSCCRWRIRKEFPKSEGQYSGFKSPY
# Test: P2X7 Radioligand Binding: human or rat P2X7-1321N1 cells were collected and frozen @−80° C. On the day of the experiment, cell membrane preparations were made according to standard published methods. The total assay volume was 100 μl:10 μl compound (10×)+(b) 40 μl tracer (2.5×)+50 μl membrane (2×). The tracer used for the assay was tritiated A-804598. The compound can be prepared as described in the literature. (Donnelly-Roberts, D. Neuropharmacology 2008, 56 (1), 223-229.) Compounds, tracer and membranes were incubated for 1 hour @ 4° C. The assay was terminated by filtration (GF/B filters pre-soaked with 0.3% PEI) and washed with washing buffer (Tris-HCl 50 mM). The IC50 generated in the binding assay was corrected for tracer concentration and affinity of the tracer to derive at the affinity (K) of the test compounds. […] Data are analyzed and graphed on Graphpad Prism 5.
compound,measurement,value
Cc1ncccc1C(=O)NN,Ki,4 nM

# Reference: ChEMBL document CHEMBL5725482, “Substituted [1,2,4]triazolo[4,3-a]pyrazines as P2X7 modulators” (2018)
